{"source": "patent US8669260B2", "about": "“Ketoconazole-derivative antagonist of human pregnane X receptor and uses thereof” (priority 2008, dated 2014)", "tested_on": "SKOV-3 cells", "details": "MTT; 48-96 hr exposure (T1317: 48 hours, normalized to GSK1385)", "data": [{"substance": "hyperforin", "values": [{"measurement": "SKOV-3 cell survival (in words)", "value": "significant increase in cell survival"}]}]}
